miR-21 FLuc – miR-21 reporter, rising signal | 340,000 tested, under 10 active | AID 2288 | HeLa miR-21 FLuc reporter, luciferase, 48 h | Potency, µM (titrated, usually from 38.3 µM), for inactives: at the highest dose reporter change, positive = more light; active = well fitted rising curve with a large enough effect; inconclusive = small, poorly fitted or top-dose-only effect; inactive = no such curve, though single readings can be large or run the other way;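 further: % of control where 0% means no effect; miR-21 action dims this reporter so a rising signal means less miR-21 action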
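Luminescence from a firefly luciferase reporter carrying a miR-21 binding site downstream, stably expressed under a CMV promoter in HeLa cells that make miR-21 endogenously, reports miRNA modulation after 48 h compound exposure up to approximately 40uM final.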
Nrf2 activator – activators of Nrf2 (ARE) signaling; AREc32 ARE-luciferase reporter (MCF7-derived line), luminescence, 24 h; Potency, µM (highest dose often 46.1 µM), without a hit: at the top dose activation, usual class: activators; actives 0.31% (n = 410,000); AID 624171; also: potency is read from the fitted curve at half-maximal effect; % of control where 0% means no effect; nearly all actives have a fitted effect of over 65% in size
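Cells of the AREc32 ARE-luciferase line are plated in OPTI-MEM containing 5% FBS and left overnight at 37 deg C. Compounds are pinned in, incubation continues 24 hr, and firefly luciferase signal is then measured.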
Nrf2 inh – blocks Nrf2 signaling; A549 ARE-Fluc reporter, luciferase luminescence, 18-24 h; Potency, µM (series often up to 46 µM), inactives show at the top dose activity change, negative = inhibition, usual class: inhibitors; actives 2.1% (n = 360,000); AID 504444; also: potency is read from the fitted curve at half-maximal effect; % is scaled to controls: 0 for no effect and ±100 for the full control effect; nearly all actives have a fitted effect of over 60% in size
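Nrf2 activity is the BugLite luminescence, read 15 min after reagent at room temperature, following CellTiter-Fluor cytotoxicity readout (30 min, 37C). Compound titrations were applied for 18-24 h to 5000 A549 ARE_Fluc cells/well in 5% FBS OPTI-MEM.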
Mito fusion yeast – inhibitors of mitochondrial division or activators of mitochondrial fusion; S. cerevisiae fusion-defective mutant growth rescue, CellTiterGlo 48 h; Potency, µM (doses to about 46.1 µM), for the others: top-dose growth rescue (activation), actives largely listed as activators; actives 0.23% (n = 320,000); AID 485298; also: potency is read from the fitted curve at half-maximal effect; % of control where 0% means no effect; nearly all actives have a fitted effect of over 45% in size
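Read-out: ATP-based luminescence (CellTiterGlo, 10 min ambient) reporting growth of fusion-defective ts yeast after 48 hours at 37C on glycerol/ethanol YPEG medium in the presence of compound.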
Glioma ERSR ind – induces the endoplasmic reticulum stress response in human glioma cells | actives 0.02% (n = 420,000) | U87-MG GRP78 promoter luciferase reporter, 16 h | Potency, µM, without a hit: at the top dose activation, most hits filed as activators; also: potency is read from the fitted curve at half-maximal effect; series mostly up to about 76 µM; % of control where 0% means no effect; nearly all actives have a fitted effect of over 35% in size
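Stably transfected U87-MG human glioma cells carrying a GRP78-based luminescent sensor were seeded at 1000 cells/well, pin-dosed with compounds and incubated 16 h. Luciferase reagent was then added, and end-point luminescence was read after 10 min at room temperature.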
A549 viability – counter-screen for Nrf2 inhibitors: cytotoxicity in A549 cells. A549 ARE-Fluc cells, CellTiter-Fluor viability, 18-24 h. AID 504648. Potency, µM (titrated, usually from 46 µM), inactives show top-dose activity change, negative = cytotoxicity, usual class: inhibitors. actives 0.16% (n = 390,000); also: potency is read from the fitted curve at half-maximal effect; % is scaled to controls: 0 for no effect and ±100 for the full control effect
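Cytotoxicity counterscreen: CellTiter-Fluor fluorescence was measured in A549 ARE_Fluc cells after 18-24 h of compound exposure in a concentration series. The subsequent BugLite luminescent read reports ARE-luciferase activity.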
* marks the source's active call; other numbers are inactive results. A selection: hits, their analogues and other compounds. The true share with any hit is near 2.3%. Calls follow the shape of the dose curve; as a rule, active = well fitted curve in the direction sought with a large enough effect; inconclusive = small, poorly fitted or top-dose-only effect, or another doubt; inactive = no such curve, though single readings can be large; an effect the other way counts as inactive or inconclusive.

Start of the data: the first three records (preview)
For COc1cccc2cc(C(=O)OCC(=O)N3CC(C)OC(C)C3)c(=O)oc12 (stereo not drawn) the results were Nrf2 activator 16µM*, Nrf2 inh -6%, Glioma ERSR ind 3% and A549 viability -3%.
COc1cccc2cc(C(=O)NCc3ccc(C)cc3)c(=O)oc12 was read as miR-21 FLuc -1%, Nrf2 activator 0%, Nrf2 inh -9%, Mito fusion yeast 2%, Glioma ERSR ind 0% and A549 viability 1%.
CC(=O)c1ccc(NC(=O)CN2CCCC2)cc1 was read as miR-21 FLuc -51%, Nrf2 activator 1%, Nrf2 inh inconclusive, Mito fusion yeast 4%, Glioma ERSR ind 1% and A549 viability 2%.

All compounds of this part, repeating the preview:
For COc1cccc2cc(C(=O)OCC(=O)N3CC(C)OC(C)C3)c(=O)oc12 (stereo not drawn) the results were Nrf2 activator 16µM*, Nrf2 inh -6%, Glioma ERSR ind 3% and A549 viability -3%.
COc1cccc2cc(C(=O)NCc3ccc(C)cc3)c(=O)oc12 was read as miR-21 FLuc -1%, Nrf2 activator 0%, Nrf2 inh -9%, Mito fusion yeast 2%, Glioma ERSR ind 0% and A549 viability 1%.
CC(=O)c1ccc(NC(=O)CN2CCCC2)cc1 was read as miR-21 FLuc -51%, Nrf2 activator 1%, Nrf2 inh inconclusive, Mito fusion yeast 4%, Glioma ERSR ind 1% and A549 viability 2%.
O=c1[nH][nH]cc1C=Nc1ccccc1Cl was read as miR-21 FLuc 2%, Nrf2 activator 0%, Nrf2 inh 15%, Mito fusion yeast 7%, Glioma ERSR ind -1% and A549 viability 6%.
For O=c1[nH][nH]cc1C=Nc1ccc(Cl)cc1Cl the results were miR-21 FLuc 0%, Nrf2 activator 0%, Nrf2 inh 5%, Mito fusion yeast 4%, Glioma ERSR ind -3% and A549 viability 0%.
Screening O=c1[nH][nH]cc1C=Nc1ccccc1O returned miR-21 FLuc -6%, Nrf2 activator 13µM*, Nrf2 inh 25%, Mito fusion yeast -1%, Glioma ERSR ind -6% and A549 viability -10%.
For O=c1[nH][nH]cc1C=Nc1cc(Cl)ccc1O the results were miR-21 FLuc 9%, Nrf2 activator 13µM*, Nrf2 inh inconclusive, Mito fusion yeast 7%, Glioma ERSR ind 1% and A549 viability -1%.
COCCn1c(=O)cnc2cnc(N(C)C)nc21 was read as Glioma ERSR ind -4%.
CCOC(=O)c1cnc2c(C)c(Cl)ccc2c1Nc1ccc(C)cc1C was read as miR-21 FLuc -6%, Nrf2 activator -1%, Nrf2 inh -22%, Glioma ERSR ind -1% and A549 viability 4%.
CCC(=O)c1ccc(N2CCN(C(=O)c3ccccc3F)CC2)c(F)c1 was read as miR-21 FLuc 4%, Nrf2 activator 3%, Nrf2 inh -19%, Mito fusion yeast 10µM*, Glioma ERSR ind -4% and A549 viability 0%.
Cc1ccc(C)c(N2CCN(C(=O)Nc3ccc4c(c3)N(C)C(=O)CS4)CC2)c1 was read as miR-21 FLuc 23%, Nrf2 activator 11%, Nrf2 inh 16µM*, Mito fusion yeast 1%, Glioma ERSR ind -3% and A549 viability -5%.
For Cc1ncc(N=Nc2ccccc2)c(-c2ccccc2)n1 the results were miR-21 FLuc -8%, Nrf2 activator 4µM*, Nrf2 inh -2%, Mito fusion yeast 1%, Glioma ERSR ind -2% and A549 viability -1%.
Screening O=C(/C=C/c1ccc(OCCCF)cc1)N1CCOCC1 returned miR-21 FLuc -55%, Nrf2 activator 2%, Nrf2 inh inconclusive, Mito fusion yeast -6%, Glioma ERSR ind 1% and A549 viability 0%.
COc1ccccc1Nc1nn2c(=O)c3ccc(C(=O)NCCc4ccccc4)cc3nc2s1 was read as miR-21 FLuc inconclusive, Nrf2 activator 3%, Nrf2 inh 18µM*, Glioma ERSR ind inconclusive and A549 viability 8.2µM*.
Screening Cc1ccc(C)c(Nc2nn3c(=O)c4ccc(C(=O)NCCc5ccccc5)cc4nc3s2)c1 returned miR-21 FLuc 2%, Nrf2 activator -1%, Nrf2 inh inconclusive, Glioma ERSR ind -4% and A549 viability 8%.
NC(=O)C(c1ccc(Cl)cc1)c1ccc(Sc2ccc(Cl)cc2)nn1 (stereo not drawn) was read as miR-21 FLuc 18%, Nrf2 activator 3%, Nrf2 inh 16µM*, Mito fusion yeast 1%, Glioma ERSR ind 2% and A549 viability -12%.
COC(=O)c1ccc(S(=O)(=O)N2CCN(CCO)CC2)n1C was read as miR-21 FLuc -1%, Nrf2 activator 0%, Nrf2 inh 1%, Mito fusion yeast -5%, Glioma ERSR ind 4% and A549 viability 1%.
Screening COc1ccc(CNC(=O)CSCc2cnn(-c3ccccc3)c2-n2cccc2)cc1 returned miR-21 FLuc -1%, Nrf2 activator -1%, Nrf2 inh -6%, Mito fusion yeast 6%, Glioma ERSR ind -3% and A549 viability -5%.
Screening O=C(CSCc1cnn(-c2ccccc2)c1-n1cccc1)NCc1ccc2c(c1)OCO2 returned miR-21 FLuc -9%, Nrf2 activator 0%, Nrf2 inh 4%, Mito fusion yeast 22µM*, Glioma ERSR ind 0% and A549 viability -1%.
CC(C)c1ccc(NS(=O)(=O)c2ccc(Cl)nc2)cc1 was read as miR-21 FLuc -14%, Nrf2 activator 4%, Nrf2 inh -15%, Mito fusion yeast inconclusive, Glioma ERSR ind 9% and A549 viability 6%.
Screening O=[N+]([O-])c1cc(NS(=O)(=O)c2ccc(Cl)nc2)ccc1Cl returned Nrf2 activator 1%, Nrf2 inh 16µM*, Mito fusion yeast -3%, Glioma ERSR ind -3% and A549 viability inconclusive.
For c1ccc2c(c1)[nH]c1c(NCC3CCCO3)ncnc12 (stereo not drawn) the results were miR-21 FLuc 15%, Nrf2 activator 6%, Nrf2 inh 15µM*, Mito fusion yeast 3%, Glioma ERSR ind -4% and A549 viability -3%.
CCCCOc1ncnc2c1[nH]c1ccc(OCC)cc12 was read as miR-21 FLuc -14%, Nrf2 activator 0%, Nrf2 inh -2%, Mito fusion yeast -4%, Glioma ERSR ind -2% and A549 viability -8%.
`CCCCOc1ncnc2c1[nH]c1ccc(F)cc12` gave miR-21 FLuc -1%, Nrf2 activator 4%, Nrf2 inh 2.1µM*, Mito fusion yeast -4%, Glioma ERSR ind 4% and A549 viability -17%.
`CCOCCCNc1ncnc2c1[nH]c1ccccc12` gave miR-21 FLuc 8%, Nrf2 activator 11%, Nrf2 inh 23µM*, Mito fusion yeast 2%, Glioma ERSR ind 6% and A549 viability -21%.
Screening C=CCNc1ncnc2c1[nH]c1ccccc12 returned miR-21 FLuc 1%, Nrf2 activator 27%, Nrf2 inh inconclusive, Mito fusion yeast -4%, Glioma ERSR ind -3% and A549 viability -13%.
`CCCCOc1ncnc2c1[nH]c1ccccc12` gave miR-21 FLuc 0%, Nrf2 activator 7%, Nrf2 inh 8.2µM*, Mito fusion yeast 4%, Glioma ERSR ind 3% and A549 viability inconclusive.
